Experimental data as given in IntAct's records for PubMed 24596249.

B1: Transducin-like enhancer protein 1 (Homo sapiens), Q04724 (parent)
chain: MFPQSRHPTPHQAAGQPFKFTIPESLDRIKEEFQFLQAQYHSLKLECEKLASEKTEMQRHYVMYYEMSYGLNIEMHKQTEIAKRLNTICAQVIPFLSQEHQQQVAQAVERAKQVTMAELNAIIGQQQLQAQHLSHGHGPPVPLTPHPSGLQPPGIPPLGGSAGLLALSSALSGQSHLAIKDDKKHHDAEHHRDREPGTSNSLLVPDSLRGTDKRRNGPEFSNDIKKRKVDDKDSSHYDSDGDKSDDNLVVDVSNEDPSSPRASPAHSPRENGIDKNRLLKKDASSSPASTASSASSTSLKSKEMSLHEKASTPVLKSSTPTPRSDMPTPGTSATPGLRPGLGKPPAIDPLVNQAAAGLRTPLAVPGPYPAPFGMVPHAGMNGELTSPGAAYASLHNMSPQMSAAAAAAAVVAYGRSPMVGFDPPPHMRVPTIPPNLAGIPGGKPAYSFHVTADGQMQPVPFPPDALIGPGIPRHARQINTLNHGEVVCAVTISNPTRHVYTGGKGCVKVWDISHPGNKSPVSQLDCLNRDNYIRSCKLLPDGCTLIVGGEASTLSIWDLAAPTPRIKAELTSSAPACYALAISPDSKVCFSCCSDGNIAVWDLHNQTLVRQFQGHTDGASCIDISNDGTKLWTGGLDNTVRSWDLREGRQLQQHDFTSQIFSLGYCPTGEWLAVGMESSNVEVLHVNKPDKYQLHLHESCVLSLKFAYCGKWFVSTGKDNLLNAWRTPYGASIFQSKESSSVLSCDISVDDKYIVTGSGDKKATVYEVIY

Variants of: B1
Details: with h4_human H4C16

effect of a mutation on the interaction	Variant
decreasing interaction	L26D;I29D
